The values that follow come from ChEMBL document CHEMBL4190373, “Tumor Targeting with Novel Pyridyl 6-Substituted Pyrrolo[2,3- d]Pyrimidine Antifolates via Cellular Uptake by Folate Receptor α and the Proton-Coupled Folate Transporter and Inhibition of De Novo Purine Nucleotide Biosynthesis” (J Med Chem, 2018).

Protein sequences, listed by entry. Tags and fused reporters are not part of them. Lines headed by an entry give the natural chain unless they say otherwise; changes in a name come on top.
UniProt P14207: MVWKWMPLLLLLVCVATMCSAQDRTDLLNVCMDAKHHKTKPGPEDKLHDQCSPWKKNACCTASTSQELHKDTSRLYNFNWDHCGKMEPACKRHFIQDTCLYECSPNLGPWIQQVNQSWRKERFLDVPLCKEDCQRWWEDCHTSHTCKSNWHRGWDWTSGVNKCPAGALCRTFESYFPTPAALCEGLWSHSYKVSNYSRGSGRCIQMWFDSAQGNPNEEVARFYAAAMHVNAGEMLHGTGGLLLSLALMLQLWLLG

Active and inactive are the calls of the source. No cut-off for these calls is given here.

The experiment concerns the target Folate receptor beta (Homo sapiens) (UniProt P14207). As to the kind of experiment: Displacement of [3H]folic acid from human FR-beta receptor expressed in Chinese hamster D4 cells measured after 15 mins. The class given is cell-based. (In general: In a radioligand displacement assay an active substance lowers the binding of a labelled ligand.)

Regarding `Nc1nc2[nH]c(CCCCc3ccc(C(=O)N[C@@H](CCC(=O)O)C(=O)O)nc3)cc2c(=O)[nH]1`, the inhibition result was “Active”.
